Measurements published in ChEMBL document CHEMBL1123569 (J Med Chem, 1987).

Chains of the proteins cited; added tags and fusions are not shown. Lines headed by an entry give the natural chain unless they say otherwise; changes in a name come on top.
UniProt P00797: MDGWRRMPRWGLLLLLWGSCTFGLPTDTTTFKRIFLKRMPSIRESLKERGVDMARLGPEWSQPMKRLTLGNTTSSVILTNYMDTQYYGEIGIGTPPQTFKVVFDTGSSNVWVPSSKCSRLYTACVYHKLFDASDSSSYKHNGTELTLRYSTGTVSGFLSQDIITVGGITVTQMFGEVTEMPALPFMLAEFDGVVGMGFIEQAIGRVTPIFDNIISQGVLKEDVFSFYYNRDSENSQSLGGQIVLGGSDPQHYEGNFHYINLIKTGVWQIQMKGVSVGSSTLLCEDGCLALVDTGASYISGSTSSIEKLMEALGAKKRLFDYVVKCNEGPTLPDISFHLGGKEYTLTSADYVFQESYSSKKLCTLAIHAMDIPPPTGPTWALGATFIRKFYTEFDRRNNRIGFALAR

Molecular target: Renin (Homo sapiens, UniProt P00797)
Experiment: Inhibition of human plasma renin
Format: cell-free
In short: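 Enriched human plasma renin preparation, substrate its own endogenous angiotensinogen (about 2×10^-6 M). Inhibitor added over a range of increasing concentrations. Angiotensin I released was quantified by RIA. With substrate held constant across the series, IC50 is treated as linearly proportional to Ki.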

With `COC(=O)CC(O)[C@H](CC(C)C)NC(=O)[C@H](C)NC(=O)CC(O)[C@H](CC(C)C)NC(=O)[C@@H](NC(=O)[C@H](Cc1ccccc1)NC(=O)OC(C)(C)C)C(C)C` (some centres not stated) the IC50 was 64.6 nM.

`COC(=O)C[C@H](O)[C@H](CC(C)C)NC(=O)[C@H](C)NC(=O)C[C@H](O)[C@H](CC(C)C)NC(=O)[C@H](CC(=O)Nc1ccccc1)NC(=O)[C@H](Cc1ccccc1)NC(=O)OC(C)(C)C` gave an IC50 of 1410 nM.
